Experimental data taken from patent publication US20080090767A1, “Agent for prophylaxis of reflex sympathetic dystrophy after cerebral apoplexy” (Asahi Kasei Pharma Corporation, priority 2006, published 2008).

Columns and labels:
[1] = system: patients with hemiplegia attributed to cerebrovascular disease (stroke) at Brunnstrom stage III or lower, not yet developing RSD; parameters: species or system human; settings: in vivo
Source text: Test subjects were 32 patients with hemiplegia attributed to cerebrovascular disease (stroke) at Brunnstrom stage III or lower in either the upper limb or a finger on admission. Patients already developing RSD (shoulder-hand syndrome) on admission and patients with pain in the shoulder joint or swollen paralyzed limbs were excluded from the test. To 11 of these 32 test subjects, 20 units of elcatonin (Elcitonin Injection 20S; Asahi-Kasei Pharma; hereinafter, referred to as EL) were intramuscularly administered once a week immediately after admission (EL administration group). On the other hand, 21 test subjects were classified into a rehabilitation alone group (control group) and compared with the EL administration group. Physical therapy and therapeutic exercise, occupational therapy, and the management of the paralyzed limbs were performed thoroughly in all the cases. […] EL administration was initiated 11 to 59 days after an attack of stroke (25.8 days on average) and continued until 5 months after the attack of stroke. The same observation period was applied to the control group. […]
Activities of daily living (ADL) were evaluated on the basis of the Barthel Index (BI) and the range of motion (ROM) of shoulder joint. […]

[2] = in vivo

1-butyric acid-7-(L-2-aminobutyric acid)-26-L-aspartic acid-27-L-valine-29-L-alanine-calcitonin [elcatonin]
Side effects during the test period [1]: no significant or serious side effect was observed | Intramuscular dose relative to drip infusion in vein needed for equal maximum serum concentration [2]: approximately 1.5 times
